Hits are enriched below; roughly 1.8% of the tested compounds scored in any of these assays.
DENV2 CPE – inhibitors of DENV2 cytopathic effect; DENV2-infected cells, cytopathic effect rescue, plate reader; CPE inhibition, % at 9.99 µM; hit rate 1.7% among 350,000; in the data active = CPE inhibition above about 20%, passing the limit was not always enough; inconclusive = no clear call, values can overlap the other calls; tested in BHK-21 cells;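 note: 0% = median of neutral control wells and 100% = median of positive control wells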
E-selectin induc – induces E-selectin expression in human endothelial cells. hit rate 0.37% among 260,000. activation, % at 7.58 µM. AID 686992. HUVEC E-selectin immunofluorescence imaging; normalized: neutral wells 0, TNF-alpha wells 100. P16581;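 active = mean E-selectin-positive cell signal at least 10% of the positive control, reached in at least 60% of replicates, without over 20% cell loss; inconclusive = no rule given, readout overlaps actives, possibly toxicity-flagged; inactive = the rest, including those meeting only one limit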
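Read-out basis: % PE-positive cells; Test system: HUVEC primary endothelial cells; Technique: immunofluorescence imaging; Dosing: single-point compound dose.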
Cneo AK release – Cryptococcus neoformans lysis via adenylate kinase release | C. neoformans lysis, adenylate kinase release luminescence, 4 h; normalised: neutral wells 0, clomiphene wells 100 | lysis activity, % at 15 µM | hit rate 0.2% among 360,000;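 active = mean lysis activity across replicates of at least 80%, whatever share of replicates individually reach that level; inactive = mean lysis activity below 80%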
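Signal: Adenylate kinase release luminescence | Assay system: Log-phase Cryptococcus neoformans yeast cells | Input: Cells at 5 × 10^6 per mL | Buffer or medium: Fresh YPD growth medium | Compound: Single dose | Schedule: Static 4 h at 37 °C with compound, 1 h detection | Controls: Clomiphene | Read-out: Luminescence rise reflecting yeast cell lysis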
Yeast UUG start – alters start codon recognition fidelity in yeast. S. cerevisiae UUG-firefly luciferase reporter, luminescence/redox ratio. activity score, % at 18.7 µM. 0.13% of 350,000 active. AID 602363;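 active = replicate mean at a twofold rise or more, about +100% in these data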;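 also: firefly luciferase made from a UUG start codon reports start codon fidelity; reporter light over untreated wells divided by growth signal over untreated wells; some hits fall short of that in this replicate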
Active calls of the source: *; ! = repeats disagree.

COc1ccc(NC(=O)c2c(F)cccc2F)cc1S(=O)(=O)Nc1ccc(Br)cc1 was read as DENV2 CPE 49*, Cneo AK release -3 and Yeast UUG start -7.
COc1ccc(NS(=O)(=O)c2cc(NC(=O)c3ccccn3)ccc2OC)cc1Br was read as DENV2 CPE 10, E-selectin induc 0, Cneo AK release 0 and Yeast UUG start -1.
For C[C@@H]1CN([C@H](C)CO)C(=O)c2cc(NC(=O)Cc3cn(C)c4ccccc34)ccc2O[C@H]1CN(C)S(=O)(=O)c1ccc(F)cc1 the results were DENV2 CPE 58*!, E-selectin induc 0, Cneo AK release -3 and Yeast UUG start -4.
COc1ccc(NC(=O)N(C)C[C@H]2Oc3ccc(NC(=O)Cc4cn(C)c5ccccc45)cc3C(=O)N([C@H](C)CO)C[C@@H]2C)cc1 was read as DENV2 CPE inconclusive, E-selectin induc 32*, Cneo AK release -3 and Yeast UUG start 6.
`CC(C)NC(=O)N(C)C[C@@H]1Oc2ccc(NC(=O)Cc3cn(C)c4ccccc34)cc2C(=O)N([C@@H](C)CO)C[C@H]1C` gave DENV2 CPE 80*, E-selectin induc -15, Cneo AK release 0 and Yeast UUG start 11.
For C[C@H](CO)N1C[C@H](C)[C@H](CN(C)C)Oc2ccc(NC(=O)Cc3cn(C)c4ccccc34)cc2C1=O the results were DENV2 CPE -2, E-selectin induc 37*, Cneo AK release 3 and Yeast UUG start -6.
Screening C[C@@H]1CN([C@@H](C)CO)C(=O)c2cc(NC(=O)Cc3cn(C)c4ccccc34)ccc2O[C@H]1CN(C)S(=O)(=O)c1ccc(F)cc1 returned DENV2 CPE 16, E-selectin induc 1, Cneo AK release 1 and Yeast UUG start -5.
Screening C[C@H](CO)N1C[C@H](C)[C@@H](CN(C)S(=O)(=O)c2cn(C)cn2)Oc2ccc(NC(=O)CCN3CCOCC3)cc2C1=O returned DENV2 CPE -3, Cneo AK release 53 and Yeast UUG start 6.
O=C(C[C@@H]1CC[C@H](NC(=O)c2ccccc2)[C@H](CO)O1)NCc1ccc(Oc2ccccc2)cc1 was read as DENV2 CPE 6, E-selectin induc 0, Cneo AK release 1 and Yeast UUG start 9.
For C[C@H](CO)N1C[C@H](C)[C@H](CN(C)Cc2ccc(C(=O)O)cc2)Oc2ccc(NC(=O)Cc3cn(C)c4ccccc34)cc2C1=O the results were DENV2 CPE 70*, E-selectin induc -5, Cneo AK release 1 and Yeast UUG start -2.
Screening COc1cccc(C(=O)Oc2cc(C)[nH]c(=O)c2[N+](=O)[O-])c1OC returned DENV2 CPE 101*, E-selectin induc 2, Cneo AK release 0 and Yeast UUG start -36.
`Cc1cc(OC(=O)c2ccccc2[N+](=O)[O-])c([N+](=O)[O-])c(=O)[nH]1` gave DENV2 CPE 3, E-selectin induc 0, Cneo AK release 0 and Yeast UUG start -13.
For O=c1c2c3c(sc2nc(NCCOCCO)n1Cc1ccco1)CCCCC3 the results were DENV2 CPE -1.
Screening CC(O)CNc1nc2sc3c(c2c(=O)n1Cc1ccco1)CCCCC3 (centres undefined) returned DENV2 CPE 29* and E-selectin induc 11.
C[C@H]1CN([C@@H](C)CO)C(=O)c2cccc(NC(=O)Nc3cccc4ccccc34)c2O[C@H]1CN(C)S(C)(=O)=O was read as DENV2 CPE 4, E-selectin induc 10, Cneo AK release 7 and Yeast UUG start 7.
For C[C@H](CO)N1C[C@H](C)[C@@H](CN(C)C(=O)NC2CCCCC2)Oc2c(NC(=O)C3CC3)cccc2C1=O the results were DENV2 CPE -1, E-selectin induc 0, Cneo AK release -8 and Yeast UUG start -8.
`C[C@@H]1CN([C@@H](C)CO)C(=O)c2cccc(NC(=O)C3CCCCC3)c2O[C@@H]1CN(C)C(=O)NC1CCCCC1` gave DENV2 CPE 33*!, E-selectin induc 0, Cneo AK release -2 and Yeast UUG start 8.
For C[C@H]1CN([C@@H](C)CO)C(=O)c2cccc(NC(=O)C3CC3)c2O[C@@H]1CN(C)C(=O)NC1CCCCC1 the results were DENV2 CPE 54*, E-selectin induc 0, Cneo AK release 4 and Yeast UUG start 1.
Screening Cc1cc(C(=O)Nc2cccc3c2O[C@H](CN(C)C(=O)NC2CCCCC2)[C@@H](C)CN([C@H](C)CO)C3=O)n(C)n1 returned DENV2 CPE 37*, E-selectin induc -3, Cneo AK release 4 and Yeast UUG start 0.

Structural class, those above with a nitro group on carbon.
Screening COc1cccc(C(=O)Oc2cc(C)[nH]c(=O)c2[N+](=O)[O-])c1OC returned DENV2 CPE 101*, E-selectin induc 2, Cneo AK release 0 and Yeast UUG start -36.
`Cc1cc(OC(=O)c2ccccc2[N+](=O)[O-])c([N+](=O)[O-])c(=O)[nH]1` gave DENV2 CPE 3, E-selectin induc 0, Cneo AK release 0 and Yeast UUG start -13.

Bioassay records from PubChem.
